Laboratory results taken from US4743611A, “Naphthalenylsulfonylimidazolidinediones and their thioxo analogs useful as aldose reductase inhibitors” (American Home Products Corp., priority 1987, dated 1988).

Key:
[1] = biological target: T1, aldose reductase (Rattus norvegicus, UniProt P07943); test: lowering of dulcitol accumulation in vivo in lens, sciatic nerve and diaphragm of galactosemic rats; parameters: species or system rat (Sprague-Dawley); details: for % lowering dulcitol accumulation in vivo, L: lens
T1 construct: diminish the accumulation of dulcitol in the lenses, sciatic nerves and diaphragm of rats fed galactose; from tissue; host or cells: lens, sciatic nerve and diaphragm of living male Sprague-Dawley rats
From the text: Such experiments are exemplified hereinbelow after the listing of the following general comments pertaining to these experiments:
(a) Four or more groups of six male rats, 50-70 g, Sprague-Dawley strain, were used. The first group, the control group, was fed a mixture of laboratory chow (rodent Laboratory Chow, Purina) and glucose at 20% (w/w %) concentration. The untreated galactosemic group was fed a similar diet in which galactose is substituted for glucose. The third group was fed a diet prepared by mixing a given amount of the test compound with the galactose containing diet. The concentration of galactose in the diet of the treated groups was the same as that for the untreated galactosemic group.
(b) After four days, the animals were killed by decapitation. The eyeballs were removed and punctured with a razor blade; the freed lenses were rolled gently on filter paper and weighed. The sciatic nerves were dissected as completely as possible and weighed. Both tissues when frozen can be kept up to two weeks before being analyzed for dulcitol.
Only two minor reagent changes were made: (a) The rinsing mixture was an aqueous 5% (w/v) trichloroacetic acid solution and (b) the stock solution was prepared by dissolving 25 mg of dulcitol in 100 ml of an aqueous trichloroacetic acid solution. [N.B.: For each experiment the average value found in the tissue from rats fed the glucose diet was subtracted from the individual values found in the corresponding tissue in galactose-fed rats to obtain the amount of polyol accumulated.]
The figures under L, N and D represent the percentage decrease of dulcitol accumulation in the tissues of the lens, sciatic nerve and diaphragm, respectively, for treated rats as compared to untreated rats.

[2] = biological target: T2, aldose reductase (Bos taurus, UniProt P16116); test: in vitro inhibition of aldose reductase (enzyme from bovine lens, modified Hayman and Kinoshita procedure); assay type: biochemical; details: 10^-6
T2 construct: preparation of the enzyme from bovine lens; from tissue; host or cells: bovine lens
Procedure: […] The aldose reductase inhibiting effects of the compounds of formula (I) were also tested by employing an in vitro testing procedure similar to that described by S. Hayman and J. H. Kinoshita, J. Biol. Chem., 240, 877 (1965).
In the present case the procedure of Hayman and Kinoshita was modified in that the final chromatography step was omitted in the preparation of the enzyme from bovine lens.

| Structure (SMILES) | % lowering dulcitol accumulation in vivo, D ([1]; diaphragm, 4 mg/kg/day in diet) [%] | % lowering dulcitol accumulation in vivo, L ([1]; 4 mg/kg/day in diet) [%] | % lowering dulcitol accumulation in vivo, L ([1]; 11 mg/kg/day in diet) [%] | inhibition at 1 µM [2] [%] |
| --- | --- | --- | --- | --- |
| COc1ccc2c(C(=S)N(C)CC(=O)O)cccc2c1C(F)(F)F [tolrestat, N-[[6-methoxy-5-(trifluoromethyl)-1-naphthalenyl]thioxomethyl]-N-methylglycine, reference compound] | 80 | 0 | 14 |  |
| O=C1CN(S(=O)(=O)c2cccc3c(I)cccc23)C(=O)N1 [Example 18, 1-[(5-iodo-1-naphthalenyl)sulfonyl]-2,4-imidazolidinedione] |  |  |  | 89 |
